From ChEMBL document CHEMBL3763146 (J Med Chem, 2016)

Experiments:
[1] = test system: Beta-3 adrenergic receptor (Canis lupus familiaris); assay: Agonist activity at dog beta3 adrenergic receptor expressed in CHO cells assessed as accumulation of cAMP after 30 mins by TR-FRET assay relative to (R)-(-)-isoproterenol; settings: 0.5 h, read-out: max activation
Rhesus monkey = assay: Dose normalized fAUC in rhesus monkey at 2 mg/kg, po; format: ADME, organism-based, Macaca mulatta; settings: in vivo
Rattus norvegicus = assay: Dose normalized fAUC in rat at 2 mg/kg, po; format: ADME, organism-based; settings: in vivo
Canis familiaris = assay: Dose normalized fAUC in dog at 2 mg/kg, po; format: ADME, organism-based, Canis lupus familiaris; settings: in vivo

| Structure (SMILES) | Emax [1] | fAUC/dose (Rhesus monkey) | fAUC/dose (Rattus norvegicus) | fAUC/dose (Canis familiaris) |
| --- | --- | --- | --- | --- |
| O=S(=O)(Nc1ccc(CCNC[C@H](O)c2cccnc2)cc1)c1ccc(-c2nc(-c3ccc(C(F)(F)F)cc3)cs2)cc1 | 80% | <= 1 nM.hr/mg/kg | <= 1 nM.hr/mg/kg | <= 6 nM.hr/mg/kg |
| C[C@@H](C(=O)Nc1ccc(C[C@@H]2CC[C@H]([C@H](O)c3ccccc3)N2)cc1)n1ncccc1=O | 86% |  |  |  |
